Literature values as cited in publication PMC8125740.
pKd: −log10 of the molar value.

Columns and labels:
[1] = target: NMDA receptor NR1 subunit C0 region (Homo sapiens) (UniProt Q05586)
[2] = target: Amyloid beta(25-35) 25-35 (Homo sapiens) (UniProt P05067)
[3] = target: NMDA receptor NR1 subunit C1 exon (Homo sapiens) (UniProt Q05586)
[4] = target: Amyloid beta(1-42) 1-42 (Homo sapiens) (UniProt P05067)

For Calmodulin (from UniProt P0DP23), the pKd [1] is given as 7.06, the pKd [2] is given as 9.00 and the pKd [3] is given as 8.40. The pKd [4] was 9.00.
